# Reference: PMC12214610
# The entries are a selection whose mix differs from that of the whole data set.
# Molecular target: Actin, alpha skeletal muscle (UniProt P68133)
substance,measurement,value
"Protein S100-A6, P06703",listed as a hit,yes
